# Results: patent publication US7183251B1, “hCG therapy for the treatment of breast cancer” (Fox Chase Cancer Center, priority 1998, dated 2007)
# Columns and labels:
# Assay type in all cases: in vivo, human
# [1] = r-hCG in primary breast cancer: clinical side effects; settings: 2-week r-hCG treatment, postmenopausal women
# Source text: (§1) Hormonal Treatment: Dose and Schedule. The patients selected for this study received intramuscularly (IM) 10,000 units of the experimental drug, recombinant human chorionic gonadotropin on days 1, 3, 5, 7, 9, 11 and 13. The lyophilysate was reconstituted with normal physological saline immediately before injection in the gluteus. The controls were blinded and received IM injections of placebo. At each injection the patients were seen and informed about there concurrent medication and possible side effects. Treatment was double blind with 20 active sets and 5 controls. No dose modification was allowed. When side effects occurred or concommitant clinical problems, the treatment was interrupted as was the case in one patient. The efficacy of treatment was assessed by evaluating in the residual tumor resected by lumpectomy or mastectomy at the end of the two-week r-hCG treatment the same parameters evaluated in the initial core needle biopsies.
# primary breast cancer = experiment: r-hCG in newly diagnosed primary breast cancer: cell proliferation by Ki67 immunocytochemistry; settings: nine r-hCG patients with positive lymph nodes at surgery; compared with needle biopsy
# Method: (§2) The efficacy of hCG was evaluated by treating with this hormone patients with newly diagnosed primary breast cancer. The efficacy of treatment was assessed by determining whether administration of 10,000 IU hCG on alternate days for 2 weeks to women with newly diagnosed breast cancer will reduce tumor size, inhibit cell proliferation, and modify the percentage of cells expressing estrogen and progesterone receptors. The systemic effect of the hormone was evaluated by determining serum levels of pituitary and ovarian hormones at various times of treatment. R-hCG was used in this study.
# Patient Selection and Accrual. Twenty-five postmenopausal women took part in the study. The patients had palpable and bidemensionally measurable primary breast cancer larger than 1.5 cm in clinical diameter. The tumor was confirmed by histopathological analysis. No evidence of metastatic disease was observed when entering the study. Patients had adequate bone marrow, hepatic and renal function. Patients with ulcerated tumors, skin involvement of inflammatory breast cancer were excluded. No concomitant pituitary nor ovarian tumors were observed among the patients. There was no active thrombophlebitis or a history of allergy to hCG. None of the patients had hormonal replacement therapy. […] The primary tumor was measured by clinical examination, mammography and sonography immediately before surgery. […]
# [2] = system: progesterone receptors (PgR); experiment: r-hCG in primary breast cancer: progesterone receptor immunocytochemistry; settings: 2-week r-hCG treatment; for cases in which positive initial NB became PgR negative after treatment: positive = more than 20% of tumoral cells
# Method: as §2
# as §1, with “Treatment was double blind with 20 active sets and 5 controls. No dose modification was allowed. When side effects occurred or concommitant clinical problems, the treatment was interrupted as was the case in one patient.” left out
# Surrogate Marker Analysis. The effects of r-hCG on the breast tumors was evaluated by using immunocytochemistry, performed in both core biopsies of the tumor and in residual tumor present in lumpectomy or mastectomy specimens. The following surrogate markers were evaluated using immunocytochemistry: Rate of cell proliferation, percentage of cells positive for estrogen (ER) and progesterone receptors (PgR) and immunoreactivity for inhibin. […] The study of lymph nodes of the same patients from which the primary tumors were studies was also analyzed by the same techniques. […]
# Procedures. […] Cell proliferation was evaluated by counting the number of cells expressing the nuclear antigen Ki67 in the outer part of the nucleolus and in the granular component of the nucleus. […]
substance,measurement,setting,value
"r-hCG: recombinant human chorionic gonadotropin, glycoprotein hormone composed of two non-covalently linked (α and β) subunits",clinical side effects,[1],neither produced clinical side effects
same,rate of cell proliferation of metastatic cells in positive lymph nodes,primary breast cancer,significantly lower than in the needle biopsy
same,cases with positive NB in which lymph node metastases were negative for PgR,[2],five
same,cases in which positive initial NB became PgR negative after treatment,[2],six
same,cases in which positive initial NB became PgR negative after treatment,[2]; listed as Recombinant hCG,six out of ten
